Like-named read-outs stand apart in the source and are kept apart here.
Columns and labels:
TRKB = target: T1, TRKB (Homo sapiens, UniProt Q16620); assay: Z′-LYTE kinase activity assay, TRKB; assay type: biochemical
T1 construct: purchased life technologies PV3616
Text: Kinase activity assay: Z′-LYTE™ technology (detection by fluorescence, enzyme-conjugated format, based on the difference in sensitivity of phosphorylated and non-phosphorylated peptides to proteolytic cleavage) was applied, and using the principle of fluorescence resonance energy transfer (FRET), a Z′-LYTE™ FRET peptide substrate (Z′-LYTE™ Tyrosine 1 Peptide Substrate, Invitrogen, PV3190), and a secondary reaction were used to detect the inhibitory activity of the compounds on TRKs (TRK1, TRK2, TRK3) (life technologies, PV3144, PV3616, PV3617).
Enzymatic reaction: In a 384-well plate, 5 μL of an enzyme-substrate system (50 mM HEPES pH 7.5, 0.01% BRIJ-35, 10 mM MgCl2, 1 mM EGTA, 2 μM Tyr 01 Peptide Substrate) was added and 5 nL of compound (concentration gradient) was transferred thereto by using the echo520 ultramicro liquid pipetting system. […] After shaking and mixing, centrifuging was performed. A reaction was carried out at 30° C. in the dark for 1.5 hours.
The data were analyzed as follows:
Phosphorylation ratio=1−{(emission ratio×F100%−C100%)/[C0%−C100%+emission ratio×(F100%−F0%)]}×100;
Inhibition rate=100×(1−compound phosphorylation ratio/negative control phosphorylation ratio).
IC50 values were calculated by using GraphPad Prism 5.0 software.

Protein sequences, listed by entry. Tags and fused reporters are not part of them. Residues count along the entry.
UniProt Q16620, 32-822: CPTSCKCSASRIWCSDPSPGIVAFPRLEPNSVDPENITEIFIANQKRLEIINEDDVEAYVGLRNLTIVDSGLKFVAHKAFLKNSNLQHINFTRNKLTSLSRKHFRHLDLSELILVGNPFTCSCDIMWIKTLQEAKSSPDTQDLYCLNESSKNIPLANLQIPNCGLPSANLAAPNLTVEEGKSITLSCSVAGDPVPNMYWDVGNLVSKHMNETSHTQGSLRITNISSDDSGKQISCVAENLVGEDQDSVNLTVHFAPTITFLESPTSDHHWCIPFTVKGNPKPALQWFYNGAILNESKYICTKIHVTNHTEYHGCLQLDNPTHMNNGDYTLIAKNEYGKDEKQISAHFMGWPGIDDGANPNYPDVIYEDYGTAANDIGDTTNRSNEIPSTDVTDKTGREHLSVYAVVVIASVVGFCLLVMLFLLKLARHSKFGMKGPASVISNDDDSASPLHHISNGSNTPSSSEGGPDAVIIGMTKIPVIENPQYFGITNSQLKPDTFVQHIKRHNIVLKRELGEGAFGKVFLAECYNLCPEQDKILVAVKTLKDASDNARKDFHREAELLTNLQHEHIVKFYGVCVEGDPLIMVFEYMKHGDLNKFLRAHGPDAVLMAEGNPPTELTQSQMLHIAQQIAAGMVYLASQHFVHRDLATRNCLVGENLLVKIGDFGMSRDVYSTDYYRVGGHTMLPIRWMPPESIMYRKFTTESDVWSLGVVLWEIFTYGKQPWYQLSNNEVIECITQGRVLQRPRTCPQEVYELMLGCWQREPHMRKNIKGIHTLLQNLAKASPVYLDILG
UniProt Q16620, 538-822 limits assumed: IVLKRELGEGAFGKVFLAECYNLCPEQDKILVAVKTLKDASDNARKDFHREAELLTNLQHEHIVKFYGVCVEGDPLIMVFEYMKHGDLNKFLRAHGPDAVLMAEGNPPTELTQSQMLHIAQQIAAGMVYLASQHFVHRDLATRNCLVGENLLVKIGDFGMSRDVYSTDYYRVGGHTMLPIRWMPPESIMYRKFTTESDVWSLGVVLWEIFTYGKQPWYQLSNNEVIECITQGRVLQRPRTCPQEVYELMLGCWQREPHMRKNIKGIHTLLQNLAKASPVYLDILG

BaF3-ETV6-NTRK2 = target: T2, BaF3-ETV6-NTRK2 (Homo sapiens, UniProt Q16620); assay: Cell proliferation inhibition (CCK-8), BaF3-ETV6-NTRK2 stable strain; assay type: cell-based, mouse; settings: read-out: ETV6-NTRK2 cell activity IC50, BaF3-ETV6-NTRK2, 72 hours
T2 construct: fused on or other part: P41212 (Transcription factor ETV6)
Description: The brief steps of stable strain construction are as follows: construct a pCDNA3.1(+) plasmid vector carrying genes such as CD74-NTRK1, ETV6-NTRK2 and ETV6-NTRK3; the plasmid was electroporated into Ba/F3 cells using the Amaxa® Cell Line Nucleofector® Kit V; 48 hours after electroporated, G418 with a final concentration of 1000 μg/ml was added for screening for two weeks, and then IL3 was removed, and continued screening to obtain polyclonal stable strains; then single clones were selected by a limiting dilution method. The stable strains were then identified using positive drugs, WB and gene sequencing; and the monoclonal clones that were identified as completely correct may be used for the study of cell proliferation inhibitory activity of inhibitors.
Cell proliferation inhibition activity study: the cells in the logarithmic growth phase were seeded into 96-well plates at 8000-12000 cells/well, and inhibitors at different concentrations (0-10 μM) were added the next day, and incubation was continued for 72 hours; then 10 μL of CCK-8 reagent was added to each well, and the incubation was continued for 1-3 hours; and then use a super microplate reader to measure their absorbance values at 450 nm and 650 nm. The half-inhibition concentration (IC50) was calculated using GraphPad Prism 8.0.0.

Compound	IC50 (TRKB) [nM]	IC50 (BaF3-ETV6-NTRK2) [nM]	IC50 (TRKB; Z′-LYTE, ATP 25 uM, read-out: TRKB IC50) [nM]
C[C@@H](Nc1ccc2[nH]nc(/C=C/c3ccccn3)c2c1)c1cc(F)cc(F)c1 [DYX-244-1, (R,E)-N-(1-(3,5-difluorophenyl)ethyl)-3-(2-(pyridin-2-yl)vinyl)-1H-indazol-5-amine]	4.4	20.3	
C[C@H](Nc1ccc2[nH]nc(/C=C/c3ccccn3)c2c1)c1cc(F)cc(F)c1 [DYX-244-2, (S,E)-N-(1-(3,5-difluorophenyl)ethyl)-3-(2-(pyridin-2-yl)vinyl)-1H-indazol-5-amine]		230	22.1
